The structures appear in SMILES notation.

Sequences of proteins named here, by UniProt entry; tags and fusion partners are left off. Residues count along the entry.
UniProt P22303, 32-614 limits assumed: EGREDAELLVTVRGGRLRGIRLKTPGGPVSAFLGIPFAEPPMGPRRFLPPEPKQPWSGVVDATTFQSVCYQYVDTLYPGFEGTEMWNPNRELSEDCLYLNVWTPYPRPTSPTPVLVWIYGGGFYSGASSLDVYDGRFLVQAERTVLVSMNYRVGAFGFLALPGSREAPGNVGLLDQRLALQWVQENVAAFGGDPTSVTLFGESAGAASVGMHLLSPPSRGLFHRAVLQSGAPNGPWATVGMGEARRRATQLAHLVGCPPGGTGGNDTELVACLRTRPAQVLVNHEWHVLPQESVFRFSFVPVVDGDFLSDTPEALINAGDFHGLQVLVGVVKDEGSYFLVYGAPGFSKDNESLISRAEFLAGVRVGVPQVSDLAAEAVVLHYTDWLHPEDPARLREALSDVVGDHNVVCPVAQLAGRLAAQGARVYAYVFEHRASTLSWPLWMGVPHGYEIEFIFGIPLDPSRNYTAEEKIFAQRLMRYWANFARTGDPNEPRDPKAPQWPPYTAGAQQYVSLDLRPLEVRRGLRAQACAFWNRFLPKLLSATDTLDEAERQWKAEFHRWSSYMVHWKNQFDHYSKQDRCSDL

This assay deals with Acetylcholinesterase (Homo sapiens, UniProt P22303). Briefly: ChEBML_88385. The text has this:
Concentration of the HOX that inhibits 50% of AChE (Acetylcholinesterase) activity

Turning to `COC[n+]1ccn(C)c1CN=O`, half-maximal inhibition (IC50) was put at 290 µM.

As usually defined, the IC50 is the concentration needed to halve the response being measured. Low values mean greater potency in that assay, high ones weaker potency in that assay.

The record behind these values is BindingDB's records for 6492073.
